This experiment concerns the target T1, Bifunctional dihydrofolate reductase-thymidylate synthase (Toxoplasma gondii, UniProt Q07422).
T1 sequence (Q07422 whole entry): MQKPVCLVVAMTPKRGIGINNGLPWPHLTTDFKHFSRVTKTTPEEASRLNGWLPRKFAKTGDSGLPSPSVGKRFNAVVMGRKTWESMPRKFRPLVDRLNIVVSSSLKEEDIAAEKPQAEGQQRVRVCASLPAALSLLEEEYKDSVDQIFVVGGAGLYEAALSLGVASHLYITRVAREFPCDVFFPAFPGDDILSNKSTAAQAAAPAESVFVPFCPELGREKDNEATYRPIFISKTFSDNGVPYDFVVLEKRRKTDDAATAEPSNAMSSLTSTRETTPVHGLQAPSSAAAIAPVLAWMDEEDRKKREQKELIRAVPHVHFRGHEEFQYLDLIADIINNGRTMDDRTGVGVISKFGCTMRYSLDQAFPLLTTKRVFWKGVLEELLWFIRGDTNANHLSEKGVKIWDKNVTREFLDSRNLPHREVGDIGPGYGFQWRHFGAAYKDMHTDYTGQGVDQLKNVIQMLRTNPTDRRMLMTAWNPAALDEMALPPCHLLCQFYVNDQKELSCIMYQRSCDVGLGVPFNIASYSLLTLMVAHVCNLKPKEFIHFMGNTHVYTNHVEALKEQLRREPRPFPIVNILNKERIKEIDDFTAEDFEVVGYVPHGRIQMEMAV
Kind of experiment: Inhibition of Toxoplasma gondii DHFR using dihydrofolic acid substrate and NADPH cofactor by spectrophotometric assay.

What is called pIC50 is the IC50 on a negative log10 scale, so that one unit is a factor of ten. Read a high pIC50 as a low IC50.

pIC50: −log10 of the molar value.

Take `COc1cc(Sc2[nH]c3nc(N)nc(N)c3c2C)cc(OC)c1OC`: the pIC50 was 6.16.

The values above are taken from ChEMBL document CHEMBL1156926, “CoMFA analysis of tgDHFR and rlDHFR based on antifolates with 6-5 fused ring system using the all-orientation search (AOS) routine and a modified cross-validated r(2)-guided region selection (q(2)-GRS) routine and its initial application” (Bioorg Med Chem, 2010).
